# Only some compounds are listed: those with a hit (about 0.46% of all), similar ones and a draw of the others.
# Pin1 inhibitor: human Pin1 inhibition; Pin1 FP peptide displacement, HiFluor488, 10 min; 390,000 compounds, 0.009% hits; Potency, µM (highest dose often 115 µM), for the others: at the top dose activity, negative = inhibition, most hits filed as inhibitors; active = well fitted inhibition curve with a large enough effect in the polarisation, with a control signal flat, not every such curve was filed as active; inconclusive = small, poorly fitted or top-dose-only effect, or effect the other way, or a change in a side signal; inactive = no such curve, though single readings can be large or run the other way; the % refers to the polarisation; note: potency is the fitted concentration of half-maximal effect; % is set by controls: 0 for no effect and ±100 for the full control effect
# B2AR arrestin: recruits beta-arrestin to the human beta2-adrenergic receptor; P07550; 330,000 compounds, 0.02% hits; beta-arrestin recruitment to beta2AR, cell-based reporter; Potency, µM (doses to about 46.1 µM), for inactives: at the highest dose activation, usual class: activators;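 note: potency is the fitted concentration of half-maximal effect; 0% = DMSO controls and full agonism = EC100 isoproterenol or metaproterenol; nearly all actives have a fitted effect of over 65% in size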
# PKM2 activator: increases activity of human pyruvate kinase M2 | purified PKM2, Kinase-Glo ATP luminescence, activation; response scale: 0% is enzyme alone, no compound | Potency, µM (series often up to 57.5 µM), without a hit: top-dose activation, usual class: activators | 260,000 compounds, 0.34% hits; note: potency is the fitted concentration of half-maximal effect; % is set by controls: 0 for no effect and ±100 for the full control effect; nearly all actives have a fitted effect of over 55% in size
#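 Kinase-Glo luminescence reports ATP generated from ADP (0.1 mM) and PEP (0.5 mM) by purified hPK-M2 after 1 h at room temperature, pH 7.2 imidazole buffer; intermediate enzyme activity allows detecting inhibitors and activators.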
# miR-21 FLuc: miR-21 reporter, rising signal; HeLa miR-21 FLuc reporter, luciferase, 48 h; Potency, µM (titrated, usually from 38.3 µM), without a hit: top-dose reporter change, positive = more light; AID 2288; 340,000 tested, under 10 active; active = well fitted rising curve with a large enough effect; inconclusive = small, poorly fitted or top-dose-only effect; inactive = no such curve, though single readings can be large or run the other way;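 further: % of control where 0% means no effect; miR-21 action dims this reporter so a rising signal means less miR-21 action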
#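 HeLa cells stably expressing CMV-driven firefly luciferase with a downstream miR-21 binding sequence, endogenously expressing miR-21, were treated with titrations (up to about 40uM final) for 48 hours at 37 degree Celsius. Luciferase luminescence was read after lysis.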
# Chronic BCR inh: inhibitors of chronic active B-cell receptor signaling; ABC-DLBCL IkBa-CBG/CBR reporter, luminescence ratio, 4 h; Potency, µM (top dose mostly 46.1 µM), for inactives: top-dose activity change, negative = inhibition, hits mostly inhibitors; 340,000 compounds, 0.05% hits; AID 493014; active = well fitted inhibition curve with a large enough effect in the signal ratio, with a control signal flat, not every such curve was filed as active; inconclusive = small, poorly fitted or top-dose-only effect, or effect the other way, or a change in a side signal; the % refers to the signal ratio;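 note: potency is the fitted concentration of half-maximal effect; plate controls were basal doxycycline-induced cells for no effect and cells given 10 µM MG132 for full effect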
#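 Cell line TMD8 (human ABC DLBCL), stably expressing tet-inducible CBG68-IkBa fusion and CBR; IMDM/0.5% FBS; cpd up to 46 uM; dox induction, 4 h, 37C/5% CO2; dual luminescence; green/red ratio; MG132 control.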
# PINK1 expr mod: modulators of PINK1 expression | PINK1 immunofluorescence, high-content cytometry, 24 h | 410,000 compounds, 0.2% hits | Potency, µM (top dose mostly 76.6 µM), for inactives: top-dose activation (PINK1 increase), hits mostly activators | AID 624263; active = well fitted activation curve with a large enough effect; inconclusive = small, poorly fitted or top-dose-only effect; cell line not stated here; note: potency is the fitted concentration of half-maximal effect; % of control where 0% means no effect; nearly all actives have a fitted effect of over 65% in size
#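 Measures PINK1 amount and localization on or inside mitochondria by immunofluorescence. Stable cells get compounds at 5 concentrations for 24 hours before fixation and staining; CCCP controls included.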
# The depositor's hits bear a star; ? = inconclusive; / = not tested or not shown; [ ] = dose if it differs, or a comment. Unless noted, calls come from the whole dose curve; as a rule, active = well fitted curve in the direction sought with a large enough effect; inconclusive = small, poorly fitted or top-dose-only effect, or another doubt; inactive = no such curve, though single readings can be large; an effect the other way counts as inactive or inconclusive.
# Short forms: A = Pin1 inhibitor; B = B2AR arrestin; C = PKM2 activator; D = miR-21 FLuc; E = Chronic BCR inh; F = PINK1 expr mod
[1] Cc1cnc(SCc2ccccn2)nc1C1CCCN(C(=O)c2cc3ccccc3oc2=O)C1 (configuration not stated)
  A: /; B: /; C: /; D: /; E: /; F: 0%

[2] COc1cc(F)c(S(=O)(=O)N2CCN(S(=O)(=O)c3cccc(N)c3)CC2)c(F)c1
  A: 3%; B: /; C: /; D: /; E: /; F: /

[3] COc1ccccc1N1CCN(c2nc(CNC(=O)c3sc(C)nc3C)nc3ccccc23)CC1
  A: /; B: /; C: /; D: /; E: /; F: 1%

[4] O=S(=O)(c1ccccc1)N1CCN(c2nc(-c3ccc(Br)cc3)cs2)CC1
  A: -4%; B: /; C: /; D: /; E: /; F: /

[5] O=C(NC1CCCCC1)c1sc(=S)n2c1[nH]c(=O)c1ccccc12
  A: -4%; B: -1%; C: -56%; D: -1%; E: ?; F: 25µM*

[6] CCCCNC(=O)c1sc(=S)n2c1[nH]c(=O)c1ccccc12
  A: 1%; B: 0%; C: 8%; D: 2%; E: 7%; F: ?

[7] Cc1ccc(S(=O)(=O)c2cc(O)ccc2O)cc1C
  A: 4%; B: 4%; C: 16µM*; D: 0%; E: 4%; F: 1%

[8] CONC(=O)C[C@@H](C#N)NC(=O)[C@@H]1CCCN1C(=O)[C@@H](NC(=O)c1ccc(N)c(Cl)c1)C(C)(C)C
  A: -6%; B: /; C: /; D: /; E: /; F: /

[9] COc1ccccc1OCC(=O)/C=C1/N(C)c2ccccc2C1(C)C
  A: ?; B: 0%; C: -1%; D: 21%; E: ?; F: 0%

[10] CN1/C(=C\C(=O)C[n+]2ccc3ccccc3c2)C(C)(C)c2ccccc21
  A: 10%; B: 0%; C: /; D: 29%; E: 1%; F: 45µM*

[11] COc1cccc(Nc2ncc3nc(-c4cn(C)c5ccccc45)c(=O)n(C[C@H]4CCCO4)c3n2)c1
  A: /; B: /; C: /; D: /; E: /; F: 2.5µM*

[12] COc1ccccc1N1CCN(C(=O)CSc2nc(C)c(Cc3ccccc3)c(=O)[nH]2)CC1
  A: 7%; B: 0%; C: 13µM*; D: 2%; E: -6%; F: -2%[38.3 µM]

[13] Oc1ccc(NCc2ccccc2OCc2ccccc2)cc1
  A: ?; B: 7.3µM*; C: 13%; D: ?; E: ?; F: ?

[14] CC(OC(=O)c1cc2sccc2n1C)C(=O)NCC1CCCO1 (configuration not stated)
  A: -6%; B: 0%; C: 0%; D: -16%; E: -4%; F: 10µM*

[15] CN1CCN(C(=O)c2cc(COc3c(F)cccc3F)on2)CC1c1ccccc1 (configuration not stated)
  A: -8%; B: 0%; C: 18µM*; D: ?; E: ?; F: -2%

[16] COc1ccccc1OCc1cc(C(=O)N2CCN(C)C(c3ccccc3)C2)no1 (configuration not stated)
  A: 2%; B: -1%; C: 9%; D: -30%; E: 7%; F: 1%

[17] C/C=C(/C(=C/C)c1ccc(O)cc1)c1ccc(O)cc1
  A: -10%; B: 1.5µM*; C: -1%; D: 11%; E: -6%; F: -1%

[18] Cc1cc2c(c(-c3nc4ccccc4s3)c1)OC(CNC(=O)CCc1cccnc1)C2 (configuration not stated)
  A: /; B: /; C: /; D: /; E: /; F: 1%

[19] CC(C)OC(=O)c1cc(NC(=S)Nc2ccc([N+](=O)[O-])cc2)cc(C(=O)OC(C)C)c1
  A: ?; B: 1%; C: 5%; D: -11%; E: 0%; F: 14µM*

[20] CC(C)CCNC(=S)Nc1ccc([N+](=O)[O-])cc1
  A: -2%; B: -1%; C: 2%; D: 28%; E: ?; F: ?

[21] CCOC(=O)c1c(NS(=O)(=O)c2cccc(OC)c2)sc2c1CCC2
  A: 1%; B: 0%; C: 16µM*; D: 3%; E: 5%; F: -2%[38.3 µM]

[22] CCOC(=S)SCC(=O)Nc1nccs1
  A: -6%; B: 0%; C: 18µM*; D: 5%; E: ?; F: 11%

[23] CCOC(=S)SCC(=O)Nc1nc(C)c(C)s1
  A: -7%; B: 0%; C: -1%; D: 1%; E: ?; F: 3%

[24] CSc1nc(C(=O)N2CCc3c(cnc(C)c3CNC(=O)c3ccc4c(c3)OCO4)C2)cs1
  A: /; B: /; C: /; D: /; E: /; F: 0%

[25] CCN(CC)S(=O)(=O)c1cccc(NC(=O)C2SC(=Nc3ccc(C)cc3C)C(C(=O)NCC3CCCO3)=C2N)c1 (configuration not stated)
  A: 7%; B: 0%; C: 1%; D: 8%; E: -5%; F: 25µM*

[26] O=S(=O)(c1ccc(OCC(O)CNCc2ccco2)c(Cl)c1)N1CCOCC1 (configuration not stated)
  A: -3%; B: 0%; C: 4µM*; D: -10%; E: -9%; F: 2%

# Compound activity as filed in PubChem BioAssay.
